Reference: ChEMBL document CHEMBL2016494, “Ligand-based design of a potent and selective inhibitor of cytochrome P450 2C19” (J Med Chem, 2012)

The chains behind the UniProt entries cited, without tags or fusion partners. Where a name states a change or a piece, a line headed by the entry shows the natural chain unless it says otherwise.
UniProt P20813: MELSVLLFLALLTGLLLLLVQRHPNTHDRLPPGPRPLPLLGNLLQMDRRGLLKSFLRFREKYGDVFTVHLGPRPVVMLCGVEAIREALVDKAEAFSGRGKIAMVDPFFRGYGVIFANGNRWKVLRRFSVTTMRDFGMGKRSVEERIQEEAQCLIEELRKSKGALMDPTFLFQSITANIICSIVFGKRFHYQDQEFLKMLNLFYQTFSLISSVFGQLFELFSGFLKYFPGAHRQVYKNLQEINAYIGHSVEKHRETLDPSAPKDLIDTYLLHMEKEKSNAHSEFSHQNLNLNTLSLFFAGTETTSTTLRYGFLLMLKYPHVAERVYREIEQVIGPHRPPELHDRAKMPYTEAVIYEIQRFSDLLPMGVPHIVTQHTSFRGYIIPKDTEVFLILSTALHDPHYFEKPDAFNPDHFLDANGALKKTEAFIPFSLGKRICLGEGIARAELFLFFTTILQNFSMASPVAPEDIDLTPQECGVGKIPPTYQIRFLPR
UniProt P10632, whole entry: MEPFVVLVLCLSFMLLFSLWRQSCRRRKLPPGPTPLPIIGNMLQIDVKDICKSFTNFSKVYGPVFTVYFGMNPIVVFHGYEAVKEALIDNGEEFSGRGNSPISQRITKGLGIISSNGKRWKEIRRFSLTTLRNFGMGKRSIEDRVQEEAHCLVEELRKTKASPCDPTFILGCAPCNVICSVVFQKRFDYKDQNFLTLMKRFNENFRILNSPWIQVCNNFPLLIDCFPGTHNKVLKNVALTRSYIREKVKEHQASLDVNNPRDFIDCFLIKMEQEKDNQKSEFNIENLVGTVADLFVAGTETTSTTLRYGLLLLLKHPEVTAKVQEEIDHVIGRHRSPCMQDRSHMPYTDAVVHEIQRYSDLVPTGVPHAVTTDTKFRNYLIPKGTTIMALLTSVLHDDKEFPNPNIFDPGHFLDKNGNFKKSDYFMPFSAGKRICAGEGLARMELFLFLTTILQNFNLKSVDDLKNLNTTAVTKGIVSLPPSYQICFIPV

Assays:
Cytochrome P450 2B6 = Cytochrome P450 2B6 (Homo sapiens, UniProt P20813); assay: Inhibition of CYP2B6 in human liver microsomes using bupropion as substrate preincubated for 5 mins by LC-MS/MS analysis
Cytochrome P450 2C8 = Cytochrome P450 2C8 (Homo sapiens, UniProt P10632); assay: Inhibition of CYP2C8 in human liver microsomes using paclitaxel as substrate preincubated for 5 mins by LC-MS/MS analysis

IC50 (Cytochrome P450 2B6) | IC50 (Cytochrome P450 2C8) | Compound
50 µM |  | CCCSc1nc2ccc(OC)cc2[nH]1
 | 50 µM | COc1ccc2[nH]c(SCCCC(=O)O)nc2c1
 | 50 µM | COc1ccc2nc(SCc3ccc(C(=O)O)cc3)[nH]c2c1
